# Assay results: patent publication US8962608B2, “Cycloalkylnitrile pyrazole carboxamides as janus kinase inhibitors” (Merck Sharp & Dohme Corp., priority 2011, dated 2015)
# Sequences of proteins named here, by UniProt entry; tags and fusion partners are left off. Residues count along the entry.
# UniProt P23458, 875-1153: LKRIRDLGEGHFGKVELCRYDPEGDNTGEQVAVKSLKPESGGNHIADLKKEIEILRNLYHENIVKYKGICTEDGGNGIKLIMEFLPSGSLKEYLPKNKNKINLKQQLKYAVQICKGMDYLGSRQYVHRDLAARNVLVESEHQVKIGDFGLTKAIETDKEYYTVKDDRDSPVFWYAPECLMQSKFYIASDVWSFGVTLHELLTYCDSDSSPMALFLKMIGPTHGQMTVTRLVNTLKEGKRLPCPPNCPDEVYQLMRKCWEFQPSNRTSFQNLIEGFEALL
# Molecular target: JAK1 (recombinant purified GST-tagged catalytic domain) (Homo sapiens (Human), UniProt P23458)
# Assay: biochemical
# 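Further: biochemical assay with HTRF read-out.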
row,SMILES,IC50 [nM]
1,"CC1(CN[C@@H]2CC[C@H](n3cc(C(N)=O)c(Nc4ccc(C(F)(F)F)cc4)n3)[C@@H](C#N)C2)COC1 (single isomer, unassigned) [Example 28-16, 1-[(1S,2S,4R or 1R,2R,4S)-2-cyano-4-{[(3-methyloxetan-3-yl)methyl]amino}cyclohexyl]-3-{[4-(trifluoromethyl)phenyl]amino}-1H-pyrazole-4-carboxamide]",1
2,"N#C[C@@H]1C[C@H](OCC2CC2)CC[C@H]1n1cc(C(N)=O)c(Nc2ccc([C@@H](O)C(F)(F)F)cc2)n1 (single isomer, unassigned) [Example 26-8, 1-[(1R,2R,4R or 1S,2S,4S)-2-cyano-4-(cyclopropylmethoxy)cyclohexyl]-3-({4-[(1R or 1S)-2,2,2-trifluoro-1-hydroxyethyl]phenyl}amino)-1H-pyrazole-4-carboxamide]",1
3,"N#C[C@H]1C[C@H](N2CCC2)CC[C@@H]1n1cc(C(N)=O)c(Nc2ccc([C@@H](O)C(F)(F)F)cc2)n1 (single isomer, unassigned) [Example 28-85, 1-[(1S,2S,4R or 1R,2R,4S)-4-azetidin-1-yl-2-cyanocyclohexyl]-3-({4-[(1R or 1S)-2,2,2-trifluoro-1-hydroxyethyl]phenyl}amino)-1H-pyrazole-4-carboxamide]",0.65
4,"CS(=O)(=O)c1ccc(Nc2nn(C3CCCC[C@@H]3C#N)cc2C(N)=O)cc1F (mixture of isomers) [Example 17-8, 1-[(1S,2S and 1R,2R)-2-cyanocyclohexyl]-3-{[3-fluoro-4-(methylsulfonyl)phenyl]amino}-1H-pyrazole-4-carboxamide]",2
5,"CCS(=O)(=O)c1ccc(Nc2nn(C3CCCC[C@@H]3C#N)cc2C(N)=O)cc1 (mixture of isomers) [Example 17-10, 1-[(1S,2S and 1R,2R)-2-cyanocyclohexyl]-3-{[4-(ethylsulfonyl)phenyl]amino}-1H-pyrazole-4-carboxamide]",0.35
6,"CC(C)(C)N[C@H]1CCC(n2cc(C(N)=O)c(Nc3ccccc3)n2)[C@@H](C#N)C1 (single isomer, unassigned) [Example 28-215, 1-[(1S,2S,4S or 1R,2R,4R)-4-(tert-butylamino)-2-cyanocyclohexyl]-3-(phenylamino)-1H-pyrazole-4-carboxamide]",0.8
7,"CC1(CN[C@H]2CC[C@H](n3cc(C(N)=O)c(Nc4ccc(C(F)(F)F)cc4)n3)[C@@H](C#N)C2)COC1 (single isomer, unassigned) [Example 28-26, 1-[(1S,2S,4S or 1R,2R,4R)-2-cyano-4-{[(3-methyloxetan-3-yl)methyl]amino}cyclohexyl]-3-{[4-(trifluoromethyl)phenyl]amino}-1H-pyrazole-4-carboxamide]",0.4
8,"N#C[C@H]1C[C@@H](OCC2CC2)CC[C@@H]1n1cc(C(N)=O)c(Nc2ccc(F)cc2)n1 (single isomer, unassigned) [Example 26-9, 1-[(1S,2S,4S or 1R,2R,4R)-2-cyano-4-(cyclopropylmethoxy)cyclohexyl]-3-[(4-fluorophenyl)amino]-1H-pyrazole-4-carboxamide]",4
9,"CN(C)[C@@H]1CC[C@H](n2cc(C(N)=O)c(Nc3ccc(OC(F)(F)F)cc3)n2)[C@@H](C#N)C1 (single isomer, unassigned) [Example 28-54, 1-[(1S,2S,4R or 1R,2R,4S)-2-cyano-4-(dimethylamino)cyclohexyl]-3-{[4-(trifluoromethoxy)phenyl]amino}-1H-pyrazole-4-carboxamide]",5
10,"CC(C)(C)OC(=O)NC1CC[C@H](C#N)C(n2cc(C(N)=O)c(Nc3ccc(F)cc3)n2)C1 (mixture of isomers) [Example 11-5, tert-butyl [(1R,3S,4S and 1S,3R,4R) or (1S,3S,4S and 1R,3R,4R)-3-{4-carbamoyl-3-[(4-fluorophenyl)amino]-1H-pyrazol-1-yl}-4-cyanocyclohexyl]carbamate]",0.8
11,"N#C[C@H]1C[C@H](NCC(F)F)CC[C@@H]1n1cc(C(N)=O)c(Nc2ccnc(F)c2)n1 (single isomer, unassigned) [Example 28-106, 1-{(1S,2S,4R or 1R,2R,4S)-2-cyano-4-[(2,2-difluoroethyl)amino]cyclohexyl}-3-[(2-fluoropyridin-4-yl)amino]-1H-pyrazole-4-carboxamide]",9
12,"N#C[C@H]1CC(N2CCC[C@@H]2CF)CC[C@@H]1n1cc(C(N)=O)c(Nc2ccc(S(=O)(=O)C(F)(F)F)cc2)n1 (single isomer, unassigned) [Example 28-156, 1-{(1S,2S or 1R,2R)-2-cyano-4-[(2R)-2-(fluoromethyl)pyrrolidin-1-yl]cyclohexyl}-3-({4-[(trifluoro-methyl)sulfonyl]phenyl}amino)-1H-pyrazole-4-carboxamide]",1
13,"CN(C)[C@@H]1CC[C@H](n2cc(C(N)=O)c(Nc3ccc(C(F)(F)F)nc3)n2)[C@@H](C#N)C1 (single isomer, unassigned) [Example 28-25, 1-[(1S,2S,4R or 1R,2R,4S)-2-cyano-4-(dimethylamino)cyclohexyl]-3-{[6-(trifluoromethyl)pyridin-3-yl]amino}-1H-pyrazole-4-carboxamide]",8
14,"N#C[C@H]1C[C@@H](N2CCC2)CC[C@@H]1n1cc(C(N)=O)c(Nc2ccc(Cl)c(F)c2)n1 (single isomer, unassigned) [Example 28-36, 1-[(1S,2S,4S or 1R,2R,4R)-4-azetidin-1-yl-2-cyanocyclohexyl]-3-[(4-chloro-3-fluorophenyl)amino]-1H-pyrazole-4-carboxamide]",2
15,"CC(C)CN[C@H]1CC[C@@H](n2cc(C(N)=O)c(Nc3ccc(C(F)(F)F)cc3)n2)[C@H](C#N)C1 (single isomer, unassigned) [Example 30-7, 1-{(1R,2R,4S or 1S,2S,4R)-2-cyano-4-[(2-methyl-propyl)amino]cyclohexyl}-3-{[4-(trifluoro-methyl)phenyl]amino}-1H-pyrazole-4-carboxamide]",6
16,"N#C[C@H]1CC(NC2CC2)CCC1n1cc(C(N)=O)c(Nc2ccc(S(=O)(=O)C(F)(F)F)cc2)n1 (mixture of isomers) [Example 27-10, 1-[(1S,2S and 1R,2R)-2-cyano-4-(cyclopropylamino)cyclohexyl]-3-({4-[(trifluoromethyl)sulfonyl]phenyl}amino)-1H-pyrazole-4-carboxamide]",0.7
17,"N#C[C@H]1C[C@H](OCC2CC2)CC[C@@H]1n1cc(C(N)=O)c(Nc2ccc([C@@H](O)C(F)(F)F)cc2)n1 (single isomer, unassigned) [Example 26-5, 1-[(1S,2S,4R or 1R,2R,4S)-2-cyano-4-(cyclopropylmethoxy)cyclohexyl]-3-({4-[(1R or 1S)-2,2,2-trifluoro-1-hydroxyethyl]phenyl}amino)-1H-pyrazole-4-carboxamide]",2
18,"N#C[C@H]1C[C@@H](OCC2CC2)CC[C@H]1n1cc(C(N)=O)c(Nc2ccc(F)cc2)n1 (single isomer, unassigned) [Example 26-11, 1-[(1R,2S,4S or 1S,2R,4R)-2-cyano-4-(cyclopropylmethoxy)cyclohexyl]-3-[(4-fluorophenyl)amino]-1H-pyrazole-4-carboxamide]",350
19,"N#C[C@@H]1CCCC[C@H]1n1cc(C(N)=O)c(Nc2ccc(S(=O)(=O)C(F)F)cc2)n1 (single isomer, unassigned) [Example 43-5, 1-[(1S,2S or 1R,2R)-2-cyanocyclohexyl]-3-({4-[(difluoromethyl)sulfonyl]phenyl}amino)-1H-pyrazole-4-carboxamide]",3
20,"CN[C@@H]1CC[C@H](n2cc(C(N)=O)c(Nc3ccc(Cl)c(F)c3)n2)[C@@H](C#N)C1 (single isomer, unassigned) [Example 28-39, 3-[(4-chloro-3-fluorophenyl)amino]-1-[(1S,2S,4R or 1R,2R,4S)-2-cyano-4-(methylamino)cyclohexyl]-1H-pyrazole-4-carboxamide]",2
21,"CC(C)(N[C@H]1CCC(n2cc(C(N)=O)c(Nc3ccccc3)n2)[C@@H](C#N)C1)C1CC1 (single isomer, unassigned) [Example 28-214, 1-{(1S,2S,4S or 1R,2R,4R)-2-cyano-4-[(1-cyclopropyl-1-methylethyl)amino]cyclohexyl}-3-(phenylamino)-1H-pyrazole-4-carboxamide]",1
22,"N#C[C@H]1C[C@@H](O)CCC1n1cc(C(N)=O)c(Nc2ccc(F)cc2)n1 (mixture of isomers) [Example 5, 1-[(1S,2S,4S and 1R,2R,4R)-2-Cyano-4-hydroxycyclohexyl]-3-[(4-fluorophenyl)amino]-1H-pyrazole-4-carboxamide]",2
23,"CC1(C)CN([C@H]2CC[C@H](n3cc(C(N)=O)c(Nc4ccc(C(F)(F)F)cc4)n3)[C@@H](C#N)C2)C1 (single isomer, unassigned) [Example 28-202, 1-[(1S,2S,4S or 1R,2R,4R)-2-cyano-4-(3,3-dimethylazetidin-1-yl)cyclohexyl]-3-{[4-(trifluoromethyl)phenyl]amino}-1H-pyrazole-4-carboxamide]",0.75
24,"N#C[C@H]1CCCC[C@@H]1n1cc(C(N)=O)c(Nc2ccc([C@H](O)C(F)F)nc2)n1 (single isomer, unassigned) [Example 17-37, 1-[(1S,2S or 1R,2R)-2-cyanocyclohexyl]-3-({6-[(1S or 1R)-2,2-difluoro-1-hydroxyethyl]pyridin-3-yl}amino)-1H-pyrazole-4-carboxamide]",0.67
25,"N#C[C@@H]1CC(CO)CCC1n1cc(C(N)=O)c(Nc2ccc(F)cc2)n1 (mixture of isomers) [Example 8, 1-((1R,2R and 1S,2S)-2-Cyano-4-(hydroxymethyl)cyclohexyl)-3-((4-fluorophenyl)amino)-1H-pyrazole-4-carboxamide]",2
26,"CS(=O)(=O)c1ccc(Nc2nn([C@H]3CC[C@H](N4CC5(CCC5)C4)C[C@@H]3C#N)cc2C(N)=O)cc1 (single isomer, unassigned) [Example 28-130, 1-[(1S,2S,4S or 1R,2R,4R)-4-(2-azaspiro[3.3]hept-2-yl)-2-cyanocyclohexyl]-3-{[4-(methylsulfonyl)phenyl]amino}-1H-pyrazole-4-carboxamide]",0.25
27,"N#C[C@H]1C[C@H](O)CC[C@@H]1n1cc(C(N)=O)c(Nc2ccc(Cl)nc2)n1 (single isomer, unassigned) [Example 25-12, 3-[(6-chloropyridin-3-yl)amino]-1-[(1S,2S,4R or 1R,2R,4S)-2-cyano-4-hydroxycyclohexyl]-1H-pyrazole-4-carboxamide]",3
